# Values of other authors in PMC4186439, “Characterization of a novel brain barrier ex vivo insect-based P-glycoprotein screening model” (Pharmacology Research & Perspectives, 2014).
# System: Pgp transporter
# Conditions: locust ex vivo and mouse Pgp KO/WT; ref Andersson et al. [2013]; Doran et al. [2005]; cited from earlier work
compound,measurement,value
Cc1nc2n(c(=O)c1CCN1CCC(c3noc4cc(F)ccc34)CC1)CCCC2 [risperidone],Pgp transporter efflux liability,affected by Pgp transporter efflux
